Assay results reported in article PMC11048482 (Biomolecules, 2024).

System: N=C(N)NCCC[C@H](N)C(=O)O
Experiment: purified protein
Conditions: pH 7.5, 1 h endpoint, PLP cofactor

“SP_0166 (Streptococcus pneumoniae TIGR4)” was tested, and the Km was 11.3 mM and the kcat was 715,053 min^−1.
